Where two headings read alike, the source gives them in different places.
Legend:
Assay in all cases: microbe, parasite or virus in culture
Format in all cases: cell-based
[1] = test system: pHCVNeo17.m10 replicon; conditions: Hepatitis C virus
[2] = test system: pHCVNeo17.m33 replicon; conditions: Hepatitis C virus; replicon pHCVNeo17.m33: K@2039, H2057R; read-out: Cmpd Ib IC50
[3] = test system: pHCVNeo17.m32 replicon; conditions: Hepatitis C virus; replicon pHCVNeo17.m32: K@2039, A2064V; read-out: Cmpd Ib IC50
[4] = test system: pHCVNeo17.m47 replicon; conditions: Hepatitis C virus; replicon pHCVNeo17.m47: E1202G, K@2039, H2057R; read-out: Cmpd Ib IC50
[5] = test system: pHCVNeo17.m44 replicon; conditions: Hepatitis C virus; replicon pHCVNeo17.m44: E1202G, K@2039, A2064V; read-out: Cmpd Ib IC50
[6] = test system: pHCVNeo17.m65 replicon; conditions: Hepatitis C virus; replicon pHCVNeo17.m65: E1202G, K@2039, R2129W; read-out: Cmpd Ib IC50
[7] = test system: pHCVNeo17.m52 replicon; conditions: Hepatitis C virus; replicon pHCVNeo17.m52: E1202G, K@2039, T2216I; read-out: Cmpd Ib IC50
[8] = test system: pHCVNeo17.m22 replicon; conditions: Hepatitis C virus; replicon pHCVNeo17.m22: E1202G, K@2039, S2404P; read-out: Cmpd Ib IC50
[9] = test system: pHCVNeo17.m46 replicon; conditions: Hepatitis C virus; replicon pHCVNeo17.m46: E1202G, K@2039, H2057R, A2064V; read-out: Cmpd Ib IC50

In the case of CC(C)(C)OC(=O)N1CCN(c2ccc(C(=O)Nc3ccc(O)cc3)cc2)CC1 [Example 101, tert-butyl 4-(4-{[(4-hydroxyphenyl)amino]carbonyl}phenyl)piperazine-1-carboxylate], the IC50 ([1]; 96 h, subgenomic pHCVNeo17.m10, Con1, E1202G + K@2039, 10AIFN cells, four days after transfection, read-out: IC50) is reported as 100 nM, the IC50 ([1]; replicon pHCVNeo17.m10: E1202G, K@2039, read-out: Cmpd Ib IC50) is reported as 100 nM and the IC50 [2] is reported as 31 nM. For the same molecule, the IC50 [3] was over 2000 nM, the IC50 [4] was 60 nM and the IC50 [5] was over 2000 nM. For the same molecule, the IC50 [6] was over 2000 nM, the IC50 [7] was 40 nM and the IC50 [8] was 38 nM. The IC50 [9] was over 2000 nM.

Source: patent publication US8012982B2, “Modulators of HCV replication” (priority 2004, dated 2011)
